These results are taken from US6903117B2, “Indole derivatives for the treatment of osteoporosis” (Nikem Research S.R.L., priority 1996, dated 2005).

Protein sequences, listed by entry. Tags and fused reporters are not part of them. Residues count along the entry.
UniProt A0A8V0Z1D5, 1-154: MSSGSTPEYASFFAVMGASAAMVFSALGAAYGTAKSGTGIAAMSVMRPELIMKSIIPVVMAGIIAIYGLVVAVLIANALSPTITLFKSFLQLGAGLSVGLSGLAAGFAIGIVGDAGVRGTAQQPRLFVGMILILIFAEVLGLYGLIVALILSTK
UniProt Q9I8C8, 1-837: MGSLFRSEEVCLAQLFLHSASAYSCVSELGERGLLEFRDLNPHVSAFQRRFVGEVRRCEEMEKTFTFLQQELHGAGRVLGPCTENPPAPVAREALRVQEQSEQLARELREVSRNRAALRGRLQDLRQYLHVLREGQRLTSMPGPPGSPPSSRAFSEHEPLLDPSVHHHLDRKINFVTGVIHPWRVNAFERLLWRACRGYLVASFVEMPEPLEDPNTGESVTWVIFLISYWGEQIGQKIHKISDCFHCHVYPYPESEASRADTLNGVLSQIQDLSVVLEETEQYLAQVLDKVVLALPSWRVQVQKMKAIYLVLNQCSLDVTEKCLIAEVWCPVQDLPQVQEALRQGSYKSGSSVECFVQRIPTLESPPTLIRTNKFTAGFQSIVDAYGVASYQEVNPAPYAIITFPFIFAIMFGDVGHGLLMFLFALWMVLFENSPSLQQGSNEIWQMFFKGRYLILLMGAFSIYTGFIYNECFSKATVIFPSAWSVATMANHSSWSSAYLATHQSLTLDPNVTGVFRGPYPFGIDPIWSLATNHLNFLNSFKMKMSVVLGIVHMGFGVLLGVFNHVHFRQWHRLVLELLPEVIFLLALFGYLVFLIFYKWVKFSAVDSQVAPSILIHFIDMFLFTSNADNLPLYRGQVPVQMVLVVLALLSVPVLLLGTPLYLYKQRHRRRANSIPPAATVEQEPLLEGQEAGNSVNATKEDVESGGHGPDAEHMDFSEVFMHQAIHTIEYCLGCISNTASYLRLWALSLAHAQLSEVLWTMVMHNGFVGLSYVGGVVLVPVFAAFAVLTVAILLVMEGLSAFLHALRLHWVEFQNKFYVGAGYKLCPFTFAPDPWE
UniProt P49712, whole entry partner: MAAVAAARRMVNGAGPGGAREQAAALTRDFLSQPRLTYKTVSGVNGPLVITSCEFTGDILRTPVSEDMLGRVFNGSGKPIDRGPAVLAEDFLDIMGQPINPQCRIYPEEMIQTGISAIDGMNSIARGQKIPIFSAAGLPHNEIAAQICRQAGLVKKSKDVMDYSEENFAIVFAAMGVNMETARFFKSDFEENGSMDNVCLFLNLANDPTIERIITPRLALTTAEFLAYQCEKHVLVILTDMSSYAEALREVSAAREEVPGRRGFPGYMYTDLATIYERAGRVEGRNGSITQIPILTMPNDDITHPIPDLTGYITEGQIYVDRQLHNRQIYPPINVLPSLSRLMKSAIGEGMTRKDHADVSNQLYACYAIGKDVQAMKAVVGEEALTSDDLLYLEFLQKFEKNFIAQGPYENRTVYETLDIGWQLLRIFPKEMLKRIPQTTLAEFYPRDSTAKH
UniProt Q5ZHL0, whole entry partner: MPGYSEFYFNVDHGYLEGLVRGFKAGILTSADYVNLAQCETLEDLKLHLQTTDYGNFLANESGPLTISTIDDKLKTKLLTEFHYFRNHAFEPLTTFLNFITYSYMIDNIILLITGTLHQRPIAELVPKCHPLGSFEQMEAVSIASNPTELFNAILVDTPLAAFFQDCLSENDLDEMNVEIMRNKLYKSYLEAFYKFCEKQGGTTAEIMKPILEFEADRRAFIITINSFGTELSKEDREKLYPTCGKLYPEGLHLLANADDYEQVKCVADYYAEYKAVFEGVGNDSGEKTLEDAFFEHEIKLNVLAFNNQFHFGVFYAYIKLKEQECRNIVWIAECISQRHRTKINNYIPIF
UniProt Q90647, whole entry partner: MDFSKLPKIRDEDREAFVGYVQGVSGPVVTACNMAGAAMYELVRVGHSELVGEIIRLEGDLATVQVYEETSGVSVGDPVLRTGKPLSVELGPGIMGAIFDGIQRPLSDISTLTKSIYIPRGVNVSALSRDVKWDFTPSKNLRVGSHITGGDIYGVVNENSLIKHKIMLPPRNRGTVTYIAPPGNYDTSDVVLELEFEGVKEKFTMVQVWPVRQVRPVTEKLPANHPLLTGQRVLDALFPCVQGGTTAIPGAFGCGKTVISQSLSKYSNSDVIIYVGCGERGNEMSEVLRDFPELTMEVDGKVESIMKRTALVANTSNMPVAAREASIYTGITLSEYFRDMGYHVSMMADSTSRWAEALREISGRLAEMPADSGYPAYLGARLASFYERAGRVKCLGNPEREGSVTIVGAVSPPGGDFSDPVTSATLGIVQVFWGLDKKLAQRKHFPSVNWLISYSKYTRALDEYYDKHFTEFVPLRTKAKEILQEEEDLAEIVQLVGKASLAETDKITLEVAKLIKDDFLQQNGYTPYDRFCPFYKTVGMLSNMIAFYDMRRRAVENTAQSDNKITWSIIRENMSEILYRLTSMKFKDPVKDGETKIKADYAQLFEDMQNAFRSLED

In this test the target is bafilomycin-sensitive ATPase in chicken osteoclasts (Gallus gallus, UniProt A0A8V0Z1D5+Q9I8C8). Description: Inhibition of bafilomycin-sensitive ATPase in chicken osteoclasts. As to conditions: read-out: IC50 (nM) ATPase assay, chicken osteoclast membranes. The protocol:
Vesicles were prepared from medullar bone obtained from tibiae and femurs of egg-laying hens which were calcium-starved for at least 15 days. Briefly, bone fragments were scraped with a 24 scalpel blade, suspended in 40 ml of isolation medium (0.2 M sucrose, 50 mM KCl, 10 mM Hepes, 1 mM EGTA, 2 mM dithiotheitrol, pH 7.4) and filtered through a 100 μm pore size nylon mesh. The whole procedure was performed at 4° C. After homogenisation in a potter (20 strokes) in 40 ml of isolation medium an initial centrifugation (6,500×gmax×20 min) was performed to remove mitochondria and lysosomes. The supernatant was centrifuged at 100,000×gmax for 1 hr and the pellet was collected in 1 ml of isolation medium, divided into 200 μl aliquots, immediately frozen in liquid nitrogen and stored at −80° C. The protein content was determined using a Biorad colourimetric kit according to Bradford [M. Bradford, Anal. Biochem., 72, 248 (1976)]. […]
Inhibition of bafilomycin-sensitive ATPase activity was assessed in purified membrane vesicles by measuring the release of inorganic phosphate (Pi) during 30 min of incubation at 37° C. in a 96-well plate either in the presence or in the absence of bafilomycin A1. […] Absorbance at 650 nm was measured after 2 min using a microplate reader. Results are expressed as μmol (Pi)×mg protein^−1×hour^−1 and, for each experiment, represent the mean±sem of triplicates.

In the case of `CO/C(=C\C=C\c1cc2cc(Cl)c(Cl)cc2[nH]1)C(=O)NC1C[C@@H](C)N(CCO)[C@@H](C)C1` (stereo partly shown), the IC50 (usually the concentration at which inhibition is half-maximal) came to 24 nM.
